# Curated experimental data: melting point values

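The numbers are reported measurements, compiled and curated for the OPERA QSAR suite. A listed value is a point estimate from one report or more. How each value was measured is not recorded, so precision varies. The measured form (salt, isomer or mixture) is not always the one drawn. Some upstream entries may be estimates or bounds without being marked so.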

The melting point is given in degrees Celsius. "via" names the databases from which the curators took the value.

| structure (SMILES) | MP (°C) | via |
|---|---|---|
| Cc1cccc(NC(=O)C2CCNCC2)n1 | 176 | OCHEM |
| COC(=O)c1ccc(C=O)o1 | 80 | OCHEM |
| C=C1CC[C@H](O)C/C1=C/C=C1\CCC[C@]2(C)[C@@H]([C@H](C)CC[C@H](C)C(C)C)CC[C@@H]12 | 97 | OCHEM |
| CC(=O)OCC(=O)[C@@]1(O)[C@H](O)C[C@H]2[C@@H]3CCC4=CC(=O)C=C[C@]4(C)C3=CC[C@@]21C | 203.6 | eChemPortal |
| CC1CCc2c(sc3ncnc(Cl)c23)C1 (stereo not drawn) | 120 | OCHEM |
| CC(=O)Nc1cccc(NC(=O)CCl)c1 | 174 | OCHEM |
| CC=C(C(=O)O)c1ccc([N+](=O)[O-])cc1 | 101.8 | eChemPortal |
| O=S(=O)(Oc1ccc(Cl)cc1)c1ccccc1 | 62 | PubChem |
| NCCCN1CCC(C(N)=O)CC1 | 95 | OCHEM |
| CNC(=O)c1ccc(Cl)c(N)c1 | 145 | OCHEM |
| O=C(O)c1cc2ccc(F)cc2[nH]1 | 228 | OCHEM |
| CS(=O)(=O)c1cc(C(=O)O)ccc1Cl | 217 | OCHEM |
| Cc1ccc(-c2nn(-c3ccccc3)cc2C=CC(=O)O)cc1 | 221 | OCHEM |
| CCCCC(CC)CNc1ccc2ccccc2c1N=Nc1ccc(N=Nc2cccc(C)c2)c(C)c1 (stereo not drawn) | 67 | eChemPortal |
| COc1ccc2nc(C)c(C(=O)O)cc2c1 | 222 | OCHEM |
| O=C(O)C1COc2ccc(Cl)cc2C1 (stereo not drawn) | 86 | OCHEM |
| O=C(O)CN1C(=O)c2cc(Cl)c(Cl)cc2C1=O | 310 | OCHEM |
| NC(=O)C1CCCC1 | 174 | OCHEM |
| Nc1sc2c(c1C(=O)c1ccccc1)CCCC2 | 125 | OCHEM |
| Cc1cc(S(=O)(=O)O)c(N)cc1Cl | 320 | OFMPub, eChemPortal |
| O=P([O-])(O)CCC(F)(F)C(F)(F)C(F)(F)C(F)(F)C(F)(F)C(F)(F)F.[Na+] | 287 | eChemPortal |
| CC[N+](C)(CC)CC(C)OCC[N+](C)(C)C.[I-].[I-] (stereo not drawn) | 179 | OCHEM |
| Cc1cc(CN)cc(C)c1O | 100 | OCHEM |
| CS(=O)(=O)NC1CCNCC1 | 144 | OCHEM |
| O=C(O)c1cc(-c2ccncc2)nc2ccccc12 | 309 | OCHEM |
| COC(=O)Oc1ccc(C)cc1OC | 52.23 | eChemPortal |
| Cc1cc(Br)c(NC(=O)CCl)c(Br)c1 | 178 | OCHEM |
| NC1=NS(=O)(=O)c2ccccc21 | 280 | OCHEM |
| Cn1nc2ccc(NC(=O)CCl)cc2n1 | 176 | OCHEM |
| O=C(O)c1ccc(S(=O)(=O)NCC2CCCO2)cc1 (stereo not drawn) | 170 | OCHEM |
| COC(=O)c1ccc(N)s1 | 116 | OCHEM |
| CS(=O)(=O)Nc1ccc(N)cc1 | 115 | OCHEM |
| COc1ccc(C2(c3ccc(OC)cc3)NC(=O)NC2=O)cc1 | 238 | OCHEM |
| CCC1(C)CC(=O)C(C)C(C)(CC)N1OC(C)c1ccccc1 (stereo not drawn) | -49.7 | eChemPortal |
| CC(C)CN(C[C@@H](O)[C@@H](N)Cc1ccccc1)S(=O)(=O)c1ccc(N)cc1 | 138 | eChemPortal |
| OCCC(F)(F)C(F)(F)C(F)(F)C(F)(F)C(F)(F)C(F)(F)F | -33.09 | eChemPortal |
| Cc1cc(=O)c(C(=O)O)nn1-c1ccccc1 | 168 | OCHEM |
| COC(=O)c1c[nH]c(=O)c([N+](=O)[O-])c1 | 215 | OCHEM |
| CC(C)(CS(=O)(=O)[O-])NC(=O)CCSCCC(F)(F)C(F)(F)C(F)(F)C(F)(F)C(F)(F)C(F)(F)F.[Na+] | 184.5 | eChemPortal |
| Clc1ccc(N2CCOCC2)nn1 | 132 | OCHEM |
| CCN(CC)C(=O)Cc1ccccc1 | 86 | PubChem |
| CCN(C(=O)Cl)C1CCCCC1 | -22 | eChemPortal |

Excerpt, the opening 5 entries:

{"smiles": "Cc1cccc(NC(=O)C2CCNCC2)n1", "MP (°C)": "176", "via": "OCHEM"}
{"smiles": "COC(=O)c1ccc(C=O)o1", "MP (°C)": "80", "via": "OCHEM"}
{"smiles": "C=C1CC[C@H](O)C/C1=C/C=C1\\CCC[C@]2(C)[C@@H]([C@H](C)CC[C@H](C)C(C)C)CC[C@@H]12", "MP (°C)": "97", "via": "OCHEM"}
{"smiles": "CC(=O)OCC(=O)[C@@]1(O)[C@H](O)C[C@H]2[C@@H]3CCC4=CC(=O)C=C[C@]4(C)C3=CC[C@@]21C", "MP (°C)": "203.6", "via": "eChemPortal"}
{"smiles": "CC1CCc2c(sc3ncnc(Cl)c23)C1", "stereo": "stereo not drawn", "MP (°C)": "120", "via": "OCHEM"}

Source: data files of OPERA 2.9 (Mansouri et al.), github.com/kmansouri/OPERA.